From US6844190B2, “St-B17 serotonin receptor” (The United States of America as represented by the …, priority 1992, dated 2005)

The chains behind the UniProt entries cited, without tags or fusion partners. A line that says so, or that is headed by a name, gives the form on record, which may keep a tag or linker.
UniProt P31388, with tags, fused parts or gaps L57V: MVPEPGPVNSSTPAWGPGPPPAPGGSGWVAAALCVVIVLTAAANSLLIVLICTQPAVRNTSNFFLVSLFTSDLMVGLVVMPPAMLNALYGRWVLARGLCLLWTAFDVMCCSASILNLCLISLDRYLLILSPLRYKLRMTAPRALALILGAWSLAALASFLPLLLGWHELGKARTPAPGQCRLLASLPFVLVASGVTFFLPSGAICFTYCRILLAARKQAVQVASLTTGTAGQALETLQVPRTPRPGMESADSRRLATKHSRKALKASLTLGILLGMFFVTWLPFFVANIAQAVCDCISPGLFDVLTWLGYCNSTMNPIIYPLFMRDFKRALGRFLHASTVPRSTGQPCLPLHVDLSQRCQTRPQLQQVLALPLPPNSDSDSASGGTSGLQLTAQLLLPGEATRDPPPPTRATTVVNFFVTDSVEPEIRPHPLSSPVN

Target: St-B17 serotonin receptor (Rattus norvegicus, UniProt P31388, L57V)
Assay: [125I]-LSD competition binding, Cos-7 cell membranes expressing St-B17
Parameters: expressed in transfected cells; host or cells: Cos-7 cells, transient transfection, crude membranes
Conditions: among endogenous biogenic amines

For `NCCc1c[nH]c2ccc(O)cc12` [5-HT, 5-hydroxytryptamine], the “displacement of [125I]-LSD binding (in words)” value was “completely displacing”.
